Measured values taken from patent publication US10155733B2, “N-aralkylcarbonyl-piperazine and -homopiperazine compounds and personal care compositions comprising the same” (Conopco, Inc., priority 2015, dated 2018).

Assay: pH measurements of test compound solutions
Type: physicochemical
Details: for Measured pH of solution: 79 mM (equimolar) in isopropyl alcohol/water, 22° C.; for pH of a 2.5% solution: 2.5% solution (weight/volume); for pH reduction relative to non-amido compound: equimolar solutions, versus non-amido piperazine (14) or homopiperazine (15); for pH unit decrease relative to corresponding secondary amine compound: secondary amine to tertiary amine, equimolar / 2.5% solutions
Experimental: Equimolar amounts of test compounds were used instead of weight % amounts to ensure a fair (molar-basis) comparison between test compounds. […] The pH of all test solutions was measured @ 22° C. using a Corning pH meter model 430 with a flat surface combo w/RJ electrode. The pH meter was calibrated using standard pH 7 & 12 buffers.

SMILES	Measured pH of solution	pH of a 2.5% solution	pH reduction relative to non-amido compound [pH units]	pH unit decrease relative to corresponding secondary amine compound [pH units]
CN1CCN(C(=O)C(O)(c2ccccc2)C2CCCC2)CC1 (centres unmarked)	8.5	8.5	2.5	1.5
CN1CCCN(C(=O)C(O)(c2ccccc2)C2CCCC2)CC1 (centres unmarked)	9.0	9.0	2.45	0.9
